{"source": "ChEMBL document CHEMBL1157908", "about": "“Macrocyclic pyridyl polyoxazoles: selective RNA and DNA G-quadruplex ligands as antitumor agents” (J Med Chem, 2010)", "type_in_all_cases": "nucleic-acid assay", "key": {"Nucleic Acid [1]": {"test_system": "Nucleic Acid", "test": "Thermal stabilization of r[AG4CG2CUG2UCG2AGUG2C] sequence of quadruplex RNA assessed as change in transition temperature at 20 uM after 4 hrs by temperature-dependent spectrophotometry in presence of 150 mM K+ ions", "summary_of_the_method": "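UV melting in 1 cm quartz cells. Sample held 5 μM strand of hTel DNA 24mer or AurA RNA 22mer, with ligand at 20 μM. Buffer 10 mM potassium phosphate pH 7.5 plus 132 mM KCl (150 mM K+ total). Nucleic acids preheated at 90 °C for 5 min and slowly cooled over 4 hr before use. AurA transition followed at 295 nm.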"}, "Nucleic Acid [2]": {"test_system": "Nucleic Acid", "test": "Thermal stabilization of Salmon testes duplex DNA assessed as change in transition temperature at 15 uM after 4 hrs by temperature-dependent spectrophotometry in presence of 150 mM K+ ions", "settings": "Salmonidae", "summary_of_the_method": "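Salmon testes duplex DNA at 30 μM base pair with ligand at 15 μM. Buffer 10 mM potassium phosphate pH 7.5 with 132 mM KCl (150 mM K+). DNA preheated at 90 °C for 5 min and cooled slowly over 4 hr. Temperature-dependent absorbance recorded in 1 cm quartz cells.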"}, "Nucleic Acid [3]": {"test_system": "Nucleic Acid", "test": "Thermal stabilization of […] poly(rA).poly(rU) duplex RNA assessed as change in transition temperature at 15 uM after 4 hrs by temperature-dependent spectrophotometry in presence of 150 mM K+ ions"}}, "data": [{"smiles": "CC(C)[C@@H]1NC(=O)c2coc(n2)-c2coc(n2)-c2coc(n2)[C@H](C(C)C)NC(=O)c2coc(n2)-c2coc(n2)-c2coc1n2", "note": "[HEXAOXAZOLE DIVALINE]", "values": [{"measurement": "deltaT", "setting": "Nucleic Acid [1]", "value": 19.5, "unit": "°C"}, {"measurement": "deltaT", "setting": "Nucleic Acid [2]", "value": 0, "unit": "°C"}, {"measurement": "deltaT", "setting": "Nucleic Acid [3]", "value": 0, "unit": "°C"}]}]}
